UUG fidelity = yeast start codon fidelity modulation | S. cerevisiae UUG-firefly luciferase reporter, luminescence/redox ratio | activity score, % at 18.7 µM | 0.13% of 350,000 active | AID 602363;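 active means replicate mean at a twofold rise or more, about +100% in these data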;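 further: firefly luciferase made from a UUG start codon reports start codon fidelity; reporter light over untreated wells divided by growth signal over untreated wells; some hits fall short of that in this replicate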
SIRT5 block = sirtuin-5 (human) deacylase inhibition; Q9NXA8; Purified SirT5, succinyl-peptide AMC, trypsin-coupled fluorescence; inhibition, % at 15 µM; hit rate 1.1% among 330,000; AID 652115; in the data active means inhibition above about 15%; inconclusive means no clear call, values can overlap the other calls
RAD54 inh = inhibitors of human RAD54 branch migration | inhibition, % at 10.4 µM | Q92698 | RAD54 Holliday junction branch migration, FAM/BHQ fluorescence | hit rate 0.14% among 360,000 | AID 602329;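 active means mean normalized replicate activity at least 40 and at least half of replicates scoring 40 or more; inconclusive means only one of the two criteria met; inactive means mean below 40 and under half of replicates reaching 40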;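 further: inhibitors cause a drop in the FAM fluorescence signal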
E-sel inducer = E-selectin induction on HUVECs; activation, % at 7.58 µM; HUVEC E-selectin immunofluorescence imaging; normalized: neutral wells 0, TNF-alpha wells 100; AID 686992; hit rate 0.37% among 260,000; P16581;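 active means mean E-selectin-positive cell signal at least 10% of the positive control, reached in at least 60% of replicates, without over 20% cell loss; inconclusive means no rule given, readout overlaps actives, possibly toxicity-flagged; inactive means the rest, including those meeting only one limit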
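Read-out basis: % PE-positive cells; Test system: HUVEC primary endothelial cells; Technique: immunofluorescence imaging; Dosing: single-point compound dose.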
RAD52 inh = inhibitors of human RAD52 DNA annealing | recombinant RAD52 DNA annealing, FRET fluorescence | inhibition, % at 18.7 µM | hit rate 0.46% among 360,000 | AID 651710;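 active means every replicate showing at least 50% inhibition; inconclusive means mean inhibition at least 50% but not in every replicate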
MLL AF4-AF9 inh = MLL-AF4/AF9 protein interaction inhibition | AlphaScreen, biotin-AF4 peptide binding to FLAG-AF9 | inhibition, % at 10 µM | hit rate 0.47% among 350,000;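 active means every replicate reaching a set inhibition limit, whatever the replicate mean, cut at about 25% in these data; inconclusive means mean inhibition reaches that limit but some replicates miss it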
Each line names hits and unclear results; the compound was inactive in the other large screens. In the library only some 1.8% were active in any assay of this set; here they are far more common.

CCCN(C)C[C@H]1OCCCC[C@H](C)Oc2ccc(NS(=O)(=O)c3ccc(F)cc3)cc2C(=O)N([C@H](C)CO)C[C@H]1C	none
CC(C)CCN1C(=O)c2cccc3c(N)ccc(c23)C1=O	E-sel inducer 26
Nc1ccc2c3c(cccc13)C(=O)N(c1ccccc1)C2=O	none (no result: UUG fidelity, RAD54 inh)
Cc1cccc(Nc2nnc(SCC(=O)c3c(N)n(C4CC4)c(=O)[nH]c3=O)s2)c1	SIRT5 block 16 (no result: E-sel inducer)
CN(C)C(=O)c1ccc(-c2ccc([C@H]3[C@H]4CN(S(C)(=O)=O)CCCCN4[C@H]3CO)cc2)cc1	MLL AF4-AF9 inh 34
CN(C)C(=O)c1ccc(-c2ccc([C@@H]3[C@@H](CO)N4CCCCN(S(C)(=O)=O)C[C@H]34)cc2)cc1	MLL AF4-AF9 inh 30
CN(C)C(=O)c1ccc(-c2ccc([C@@H]3[C@H]4CN(S(C)(=O)=O)CCCCN4[C@H]3CO)cc2)cc1	none
O=C(c1cccc(Cl)c1)N1CCCC(C(=O)N2CCCCCC2)C1 (stereo not given)	none (no result: SIRT5 block, E-sel inducer, RAD52 inh, MLL AF4-AF9 inh)
O=C(c1cccc(F)c1)N1CCCC(C(=O)N2CCCCCC2)C1 (stereo not given)	SIRT5 block 27 (no result: E-sel inducer)
CC1(C)CC2CC(C)(CN2/C=C2/CCCCC2=O)C1 (stereo not given)	MLL AF4-AF9 inh 32
CC1(C)CC2CC(C)(CN2S(=O)(=O)c2ccc(N)cc2)C1 (stereo not given)	none (no result: SIRT5 block, E-sel inducer, RAD52 inh, MLL AF4-AF9 inh)
C[C@H](CO)N1C[C@H](C)[C@@H](CN(C)C(=O)Nc2cccc3ccccc23)OCCCC[C@H](C)Oc2ccc(NS(=O)(=O)c3cccs3)cc2C1=O	none
O=S(=O)(c1ccc(F)cc1)N1CCN(c2ncccn2)CC1	none (no result: UUG fidelity, RAD54 inh)
O=S(=O)(c1ccc(F)cc1)N1CCCN(c2nccc(C(F)(F)F)n2)CC1	E-sel inducer 30
C[C@@H]1CN([C@H](C)CO)C(=O)c2cc(NC(=O)Nc3ccccc3)ccc2O[C@H]1CN(C)C(=O)Nc1cccc2ccccc12	none
CC(=O)N(c1ccc2oc(=O)sc2c1)S(=O)(=O)c1ccc(C(=O)O)cc1	SIRT5 block 20 (no result: E-sel inducer)
CO[C@@H]1CN(C)C(=O)c2cc(NC(C)=O)ccc2OC[C@H](C)N(C(=O)c2ccc(F)cc2)C[C@H]1C	none (no result: UUG fidelity)
O=C(Cn1c(=O)oc2cc(S(=O)(=O)NCc3ccccc3)ccc21)N1CCCC1	MLL AF4-AF9 inh 29
Cc1noc(C)c1NC(=O)N(C)C[C@@H]1Oc2ncc(C#CC3CC3)cc2C(=O)N([C@H](C)CO)C[C@H]1C	none
c1coc(-c2nnc(-c3ccco3)nn2)c1	SIRT5 block 18 (no result: E-sel inducer)
C[C@@H](NC(=O)C[C@@H]1C=C[C@H](NC(=O)Nc2ccc3c(c2)OCO3)[C@@H](CO)O1)c1ccccc1	none (no result: UUG fidelity)
C[C@H](CO)N1C[C@H](C)[C@@H](CN(C)C(=O)Nc2ccc(F)cc2)Oc2ccc(NS(=O)(=O)c3cccs3)cc2C1=O	none
C[C@@H]1CN([C@@H](C)CO)C(=O)c2cc(NS(=O)(=O)c3cccs3)ccc2O[C@@H]1CN(C)S(C)(=O)=O	E-sel inducer 154
C[C@@H]1CN([C@@H](C)CO)C(=O)c2cc(NS(=O)(=O)c3cccs3)ccc2O[C@@H]1CN(C)C(=O)Nc1ccc(F)cc1	MLL AF4-AF9 inh 47
C[C@@H]1CN([C@H](C)CO)C(=O)Cc2cc(NS(=O)(=O)c3cccs3)ccc2O[C@H]1CN(C)CC1CCCCC1	none
C[C@H]1CN([C@@H](C)CO)C(=O)Cc2cc(NS(=O)(=O)c3cccs3)ccc2O[C@H]1CN(C)C(=O)Nc1ccc(F)cc1	none
C[C@@H]1CN([C@@H](C)CO)C(=O)c2cc(NS(=O)(=O)c3cccs3)ccc2O[C@H]1CN(C)S(C)(=O)=O	none
C[C@@H]1CN([C@@H](C)CO)C(=O)Cc2cc(NS(=O)(=O)c3cccs3)ccc2O[C@H]1CN(C)CC1CCCCC1	SIRT5 block 15
C[C@@H]1CN([C@@H](C)CO)C(=O)Cc2cc(NS(=O)(=O)c3cccs3)ccc2O[C@H]1CN(C)C(=O)Nc1ccc(F)cc1	E-sel inducer 30
C[C@@H]1CN([C@H](C)CO)C(=O)c2cc(C#CC3CC3)cnc2O[C@@H]1CN(C)C(=O)c1ccncc1	none (no result: UUG fidelity, SIRT5 block, RAD54 inh, RAD52 inh, MLL AF4-AF9 inh)
CO[C@@H]1CN(C)C(=O)c2ccc(NC(=O)C3CCCC3)cc2OC[C@@H](C)N(CCC(F)(F)F)C[C@H]1C	none
CC(C)NC(=O)Nc1cccc2c1O[C@@H](CN(C)Cc1ccncc1)[C@@H](C)CN([C@H](C)CO)C2=O	none
C[C@H]1CN([C@@H](C)CO)C(=O)c2cccc(NC(=O)Nc3ccc4c(c3)OCO4)c2O[C@@H]1CN(C)C(=O)NC1CCCCC1	none
CC(C)NC(=O)N(C)C[C@@H]1Oc2ccc(NS(=O)(=O)c3cccs3)cc2CC(=O)N([C@H](C)CO)C[C@@H]1C	E-sel inducer 26
C[C@@H]1CN([C@H](C)CO)C(=O)Cc2cc(NS(=O)(=O)c3cccs3)ccc2O[C@@H]1CN(C)C(=O)Nc1ccccc1	none
Clc1ccc(-c2csc(=Nc3cccnc3)n2CCCn2ccnc2)cc1Cl	MLL AF4-AF9 inh 47 (no result: UUG fidelity, RAD54 inh, E-sel inducer)
COCCn1c(-c2ccc(Br)cc2)csc1=Nc1cccnc1	none (no result: UUG fidelity, RAD54 inh, E-sel inducer)
C[C@@H]1CCCCO[C@@H](CN(C)Cc2ccc(C(=O)O)cc2)[C@H](C)CN([C@H](C)CO)C(=O)c2cc(NS(=O)(=O)c3ccc(Cl)cc3)ccc2O1	none
CN(C)/C=C/c1oc2ccc(O)cc2c1[N+](=O)[O-]	SIRT5 block 24 (no result: UUG fidelity, RAD54 inh, E-sel inducer)
O=C(C[C@@H]1CC[C@@H]2[C@H](COC[C@H](O)CN2CCc2ccccc2)O1)NCCCN1CCOCC1	none (no result: UUG fidelity)
Cc1ccc2ccc(C(Nc3ccccn3)c3ccccc3)c(O)c2n1 (stereo not given)	MLL AF4-AF9 inh inconclusive
Cc1ccnc(NC(c2ccccc2)c2ccc3cccnc3c2O)c1 (stereo not given)	MLL AF4-AF9 inh 29
O=C(C[C@@H]1CC[C@H]2[C@@H](COC[C@H](O)CN2Cc2nccs2)O1)N1CCC(Cc2ccccc2)CC1	none
CC(C)COc1ccc(S(=O)(=O)NNC(=O)c2cc3ccccc3o2)cc1	none (no result: SIRT5 block, E-sel inducer, RAD52 inh, MLL AF4-AF9 inh)
CCCCOc1ccc(S(=O)(=O)NNC(=O)c2cc3ccccc3o2)cc1	SIRT5 block 31 (no result: E-sel inducer)
C[C@H]1CN([C@@H](C)CO)C(=O)c2cc(NC(=O)Nc3ccc(F)cc3)ccc2O[C@@H]1CN(C)C(=O)Nc1ccccc1	none
Cc1ccccc1N=Nc1ccc(O)c2ncccc12	none
O=S(=O)(O)c1cccc2c(N=Nc3ccc(O)c4ncccc34)cccc12	SIRT5 block 34 (no result: E-sel inducer, MLL AF4-AF9 inh)
CC(C)Cc1cc(C(=O)N2CCC(N3CCC(C(=O)NC4CC4)CC3)CC2)n[nH]1	SIRT5 block 17 (no result: E-sel inducer)
O=C(c1cccnc1)N1C[C@H]2[C@@H](c3ccccc31)[C@H](CO)N2Cc1ccc2c(c1)OCO2	none
CCc1ccccc1NC(=O)CSc1n[nH]c(-c2cccnc2)n1	none (no result: UUG fidelity, RAD54 inh)
COc1ccc(OC)c(NC(=O)CSc2n[nH]c(-c3cccnc3)n2)c1	SIRT5 block 17
